# Data from patent US9796676B2, “Honeybee repellents and uses thereof” (Inscent, Inc., priority 2013, dated 2017).
# System: Apis mellifera Carniolan foraging worker honeybees
# Test: Proboscis extension response (PER) assay with bees conditioned to 2-heptanone
# Format: in vivo
# Conditions: 0.5% compound in Triton X-100/water on filter paper, 4 s exposure; only bees giving PER with 2-heptanone and not with water or 15% Triton X-100 controls counted
# Protocol: To determine whether a living honeybee can recognize a candidate compound, these compounds were tested using a proboscis extension response (PER) assay using classical conditioning approaches. Proboscis extension response conditioning is a case of appetitive learning, in which bees learn to associate odor stimuli with sucrose reward in the laboratory. In this case, bees were conditioned to produce a PER to 2-heptanone as the conditioned stimulus and a sugar reward as the unconditioned stimulus. These trained bees were then exposed to an odor pulse of a candidate compound to test whether a candidate compound would also produce a PER. If the candidate compound “mimics” 2-heptanone then the honeybee will extend its proboscis.
# For conditioning procedures, Apis mellifera Carniolan foraging worker honeybees were obtained from a local apiary (typically 60 bees per shipment). […]
# To train a honeybee to respond to a conditioned and unconditioned stimuli, bees were placed, without anesthesia, in individual 1.5 mL micro-centrifuge holding tubes and held overnight without access to food or water. […] Positive and negative responses were recorded. A positive PER was scored when a bee extended its proboscis before the sucrose appeared. […]
row,SMILES,2-heptanone positive bees testing positive to compound [%]
1,O=C(CCN1C(=O)c2ccccc2C1=O)N1CCN(C2c3ccccc3-c3ccccc32)CC1 [compound 100],10.4
2,O=C(CCN1C(=O)c2ccccc2C1=O)N1CCN(C2c3ccccc3-c3ccccc32)CC1 [compound 102],10.5
